# Results published in ChEMBL document CHEMBL1250519, “Design, synthesis, and biological evaluation of halogenated N-(2-(4-oxo-1-phenyl-1,3,8-triazaspiro[4.5]decan-8-yl)ethyl)benzamides: discovery of an isoform-selective small molecule phospholipase D2 inhibitor” (J Med Chem, 2010).
# Assays:
# Details in all cases: Sprague-Dawley, rat, iv, 1 mg/kg
# in vivo [1] = assay: in vivo
# in vivo [2] = assay: in vivo; remark: listed apart in the source
# in vivo [3] = assay: in vivo; remark: listed apart in the source
smiles,measurement,setting,value
C[C@@H](CN1CCC(n2c(=O)[nH]c3cc(Br)ccc32)CC1)NC(=O)[C@H]1C[C@@H]1c1ccccc1,half-life,in vivo [1],46.8 min
same,Vd,in vivo [2],4.7 L/kg
same,clearance,in vivo [3],60.7 mL/min/kg
